{"source": "patent US20140170125A1", "about": "“USE OF CARDIOTROPHIN-1 FOR THE TREATMENT OF KIDNEY DISEASES” (DIGNA Biotech, S.L., priority 2011, published 2014)", "key": {"[1]": {"system": "experimental model of iodinated contrast nephropathy", "assay": "Contrast-induced nephropathy: Gastrografin in rats sensitized with subtoxic gentamicin", "conditions": "agents without CT-1 protection or alone; vs control", "protocol": "The rats were placed in individual metabolic cages where they had free access to food and drink. After two days of acclimatization, the 24-hour urine was collected in graduated cylinders. The urine collected was centrifuged during 8 minutes at 2,500 rpm, to clean it from residues not thereof, the clean urine was collected and it was stored at −80° C. for its later analysis.\nThe blood samples were obtained in capillaries with heparin by a small cut at the end of the tail. Five capillaries were extracted per rat (200 μL), and the capillaries were centrifuged in a microcentrifuge at 11,000 rpm during three minutes. Once centrifuged, the capillaries were broken with the aid of a file, by the cells-plasma limit. The plasma was extracted and stored in eppendorf tubes at −80° C. for its later analysis.\nTo measure kidney function, the plasma concentrations of creatinine and creatinine clearance, which is a measurement of the glomerular filtration rate, were determined. The creatinine clearance (CrCl) was calculated from the formula CrCl=UF×CrU/CrP, where UF is the urinary flow (ml/min), CrU the creatinine concentration in urine (mg/ml) and CrP the creatinine concentration in plasma (mg/ml). The creatinine concentration in urine and in plasma were measured by a semiautomatic analyser (Reflotron, Roche).\nThe concentration of urea in plasma was measured by specific reactive strips of a commercial kit, using a semiautomatic analyser (Reflotron, Roche).\nThe concentration of proteins in urine (proteinuria) was measured by Bradford's colorimetric method (Anal Biochem. 1976; 72:248-54). The urinary excretion of proteins (UEprot) in 24 hours was calculated by the formula: UEprot=Cprot×FU24 h, where Cprot is the concentration of proteins in urine (mg/mL) and FU24 h the urinary flow of 24 hours (mL/day).\nFor its determination a commercial kit from Roche was used, following the manufacturer's specifications, and the results were analysed with the KC-Junior software. […]"}, "[2]": {"system": "acute kidney injury produced by gentamicin", "assay": "Acute kidney injury produced by gentamicin"}}}
{"substance": "gentamicin [reference compound]", "values": [{"measurement": "creatinine clearance", "setting": "[1]", "result": "did not alter"}, {"measurement": "plasma concentration of creatinine", "setting": "[1]", "result": "did not alter"}, {"measurement": "urea plasma concentration", "setting": "[1]", "result": "did not alter"}, {"measurement": "urinary excretion of N-acetyl glucosaminidase (NAG)", "setting": "[2]; G alone", "result": "highly increased"}, {"measurement": "creatinine clearance", "setting": "[2]; agent alone", "result": "drastic decrease"}, {"measurement": "plasma creatinine", "setting": "[2]; agent alone", "result": "accumulation in the blood"}, {"measurement": "urea plasma concentration", "setting": "[2]; agent alone", "result": "accumulation in the blood"}, {"measurement": "systolic blood pressure (SBP)", "setting": "[2]; basal vs end of treatments (d 6)", "result": "slightly increased"}]}
